In patent US7598384B2, “Tetrahydroquinolinones and their use as antagonists of metabotropic glutamate receptors” (Merz Pharma GmbH & Co. KGAA, priority 2004, dated 2009) one finds Kd data, which are given here for 1 compound.

Amino acid sequences for entries named in this document (tags omitted). Residues count along the entry.
UniProt P31424, 21-1203: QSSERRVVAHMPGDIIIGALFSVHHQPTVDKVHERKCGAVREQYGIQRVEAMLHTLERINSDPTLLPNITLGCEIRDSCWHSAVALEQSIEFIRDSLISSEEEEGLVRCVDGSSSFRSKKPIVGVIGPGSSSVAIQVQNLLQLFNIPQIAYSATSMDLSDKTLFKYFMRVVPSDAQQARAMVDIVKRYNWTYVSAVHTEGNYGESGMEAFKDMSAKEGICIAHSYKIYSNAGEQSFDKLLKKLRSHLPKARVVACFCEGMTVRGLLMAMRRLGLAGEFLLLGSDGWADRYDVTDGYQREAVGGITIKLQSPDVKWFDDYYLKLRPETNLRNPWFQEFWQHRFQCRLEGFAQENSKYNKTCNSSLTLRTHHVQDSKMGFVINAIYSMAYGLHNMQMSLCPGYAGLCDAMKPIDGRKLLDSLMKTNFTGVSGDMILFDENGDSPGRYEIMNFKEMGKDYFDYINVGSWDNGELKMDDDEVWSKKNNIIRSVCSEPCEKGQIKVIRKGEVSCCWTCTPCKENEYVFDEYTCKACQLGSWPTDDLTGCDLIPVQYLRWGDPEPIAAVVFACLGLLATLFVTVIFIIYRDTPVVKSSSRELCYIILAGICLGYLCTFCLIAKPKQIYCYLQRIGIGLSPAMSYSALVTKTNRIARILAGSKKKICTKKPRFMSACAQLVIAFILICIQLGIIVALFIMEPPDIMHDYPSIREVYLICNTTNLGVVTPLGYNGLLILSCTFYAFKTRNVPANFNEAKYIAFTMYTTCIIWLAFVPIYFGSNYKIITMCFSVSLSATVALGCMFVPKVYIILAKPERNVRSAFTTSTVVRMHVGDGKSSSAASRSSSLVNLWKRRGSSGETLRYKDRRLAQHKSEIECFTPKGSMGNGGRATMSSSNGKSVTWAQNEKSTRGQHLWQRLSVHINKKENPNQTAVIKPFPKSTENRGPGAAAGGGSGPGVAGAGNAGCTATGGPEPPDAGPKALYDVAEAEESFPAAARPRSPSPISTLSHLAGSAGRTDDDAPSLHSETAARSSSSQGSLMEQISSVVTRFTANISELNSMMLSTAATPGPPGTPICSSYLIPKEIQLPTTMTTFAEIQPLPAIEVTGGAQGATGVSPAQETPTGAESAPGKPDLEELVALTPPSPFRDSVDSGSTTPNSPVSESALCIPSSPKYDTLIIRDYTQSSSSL

The target in the assay is T1, transmembrane allosteric modulatory sites of mGluR5 receptors (Rattus norvegicus, UniProt P31424).
T1 construct: The cortex is dissected and homogenized in 20 volumes of ice-cold 0.32 M sucrose; from tissue; host or cells: rat cerebral cortex membranes (male Sprague-Dawley)
The assay can be described thus: [3H]MPEP binding to rat cortical membranes. As to conditions: read-out: Kd of the radioligand by Scatchard analysis. As to the method:
Preparation of Rat Cortical Membranes:
Male Sprague-Dawley rats (200-250 g) are decapitated and their brains are removed rapidly. The cortex is dissected and homogenized in 20 volumes of ice-cold 0.32 M sucrose using a glass-Teflon homogenizer. The homogenate is centrifuged at 1000×g for 10 min. […] All centrifugation steps are carried out at 4° C. After resuspension in 5 volumes of 50 mM Tris-HCl, pH 8.0 the membrane suspension is frozen rapidly at −80° C.
Incubations are terminated using a Millipore filter system.

The structures appear in SMILES notation.

As a reminder, the Kd is a measure of binding affinity in units of concentration. Turning to `Cc1cccc(C#Cc2ccccc2)n1` [(^3H)-MPEP], the dissociation constant Kd stood at 13.6 nM.
